Experimental data taken from ChEMBL document CHEMBL5107966, “Cascade synthetic strategies opening access to medicinal-relevant aliphatic 3- and 4-membered N-heterocyclic scaffolds” (Eur J Med Chem, 2022).

Test system: HCT-116
Assay: Cytotoxicity against human HCT-116 cells assessed as cell viability incubated for 24 hrs by MTT assay

SMILES: CCOP(=O)(OCC)C1CN1Cc1ccccc1 (stereo unspecified)
- pIC50: 4.89

pIC50: −log10 of the molar value.
